Data taken from patent US20240173272A1 (LUPIN ATLANTIS HOLDINGS SA, priority 2021, published 2024).

Experiment: Food effect study (Example 11)
Details: fed vs fasted state

Question: With Cc1cccc(C)c1OCC(C)N.Cl (centres unmarked) [mexiletine hydrochloride] as the molecule, how does the “increase of AUC by food” value read?
Answer: The value was roughly 16%.

Question: What about the “increase of Cmax by food” value of the same molecule?
Answer: Its value is roughly 39%.
